For assay [1], the target named is BaF3 cell lines stably transfected with kinase EGFR L858R/T790M (Homo sapiens, UniProt P00533, T790M/L858R, cells depend on it). The assay is described as follows: Growth inhibition of BaF3 cell line stably transfected with kinase EGFR L858R/T790M (MTS). Particulars: read-out: growth inhibitory activity IC50, L858R/T790M, 48 h. On the procedure:
(§1) Biological Activity Assay: Growth Inhibitory Activity of Compounds on Cell Lines Stably Transfected with Kinase
(§2) The activity of compounds against various mutants of kinase EGFR was evaluated by their effect of inhibiting growth of BaF3 cell lines stably transfected with kinase. The specific test method was given as follows:
(§3) 1) Culture medium: DMEM (Dulbecco's modified eagle medium) or RPMI 1640 (containing 10% fetal bovine serum, 100 μg/mL ampicillin, 100 μg/mL streptomycin).
(§4) 2) Reagent: MTS reaction solution (containing 2 mg/mL of MTS [3-(4,5-di methylthiazol-2-yl)-5-(3-carboxymethoxyphenyl)-2-(4-sulfophenyl)-2H-tetrazolium, inner Salt]; 100 μg/mL of PES (phenazine […])).
(§5) 3) Compound test: cells were incubated into a 96-well culture plate, the volume of cytosol was 90 μL, and then 10 μL of the compound at each gradient concentration was added. That is, the highest concentration was 10 μM, which was diluted stepwise by ⅓, and 8 concentration points were set in total; 0.1% DMSO (dimethyl sulfoxide) was contained in the system. The cell plate with uniformly mixed compound was cultured in a cell culture incubator (37° C.; 5% […]) for 48 h, then 20 μL of MTS reaction solution was added, uniformly mixed and incubated in the cell culture incubator (37° C.; 5% CO2) for 1-4 h; OD values at 490 nm were measured by a microplate reader (VARIOSKAN FLASH, Thermo). Two parallels were set in each group of experiments, with 0.1% (a final concentration) DMSO as a negative control, and a culture medium without cells and compounds as a blank control. The cell growth inhibition rate was calculated by the following formula: Cell growth inhibition rate %=1−(ODexperimental group−ODblank group)/(ODnegative group−ODblank group)×100%.
(§6) 4) IC50 calculation: The semi-inhibitory concentration of the compounds acting on cells was calculated using GradPad Prism 5 software according to the measured cell growth inhibition rate.

Amino acid sequences for entries named in this document (tags omitted). A change or cut given only in a name is not applied to a line headed by its entry. Chains listed by the source or under a name are the forms on record and can include a tag or linker.
UniProt P00533, whole entry L858R: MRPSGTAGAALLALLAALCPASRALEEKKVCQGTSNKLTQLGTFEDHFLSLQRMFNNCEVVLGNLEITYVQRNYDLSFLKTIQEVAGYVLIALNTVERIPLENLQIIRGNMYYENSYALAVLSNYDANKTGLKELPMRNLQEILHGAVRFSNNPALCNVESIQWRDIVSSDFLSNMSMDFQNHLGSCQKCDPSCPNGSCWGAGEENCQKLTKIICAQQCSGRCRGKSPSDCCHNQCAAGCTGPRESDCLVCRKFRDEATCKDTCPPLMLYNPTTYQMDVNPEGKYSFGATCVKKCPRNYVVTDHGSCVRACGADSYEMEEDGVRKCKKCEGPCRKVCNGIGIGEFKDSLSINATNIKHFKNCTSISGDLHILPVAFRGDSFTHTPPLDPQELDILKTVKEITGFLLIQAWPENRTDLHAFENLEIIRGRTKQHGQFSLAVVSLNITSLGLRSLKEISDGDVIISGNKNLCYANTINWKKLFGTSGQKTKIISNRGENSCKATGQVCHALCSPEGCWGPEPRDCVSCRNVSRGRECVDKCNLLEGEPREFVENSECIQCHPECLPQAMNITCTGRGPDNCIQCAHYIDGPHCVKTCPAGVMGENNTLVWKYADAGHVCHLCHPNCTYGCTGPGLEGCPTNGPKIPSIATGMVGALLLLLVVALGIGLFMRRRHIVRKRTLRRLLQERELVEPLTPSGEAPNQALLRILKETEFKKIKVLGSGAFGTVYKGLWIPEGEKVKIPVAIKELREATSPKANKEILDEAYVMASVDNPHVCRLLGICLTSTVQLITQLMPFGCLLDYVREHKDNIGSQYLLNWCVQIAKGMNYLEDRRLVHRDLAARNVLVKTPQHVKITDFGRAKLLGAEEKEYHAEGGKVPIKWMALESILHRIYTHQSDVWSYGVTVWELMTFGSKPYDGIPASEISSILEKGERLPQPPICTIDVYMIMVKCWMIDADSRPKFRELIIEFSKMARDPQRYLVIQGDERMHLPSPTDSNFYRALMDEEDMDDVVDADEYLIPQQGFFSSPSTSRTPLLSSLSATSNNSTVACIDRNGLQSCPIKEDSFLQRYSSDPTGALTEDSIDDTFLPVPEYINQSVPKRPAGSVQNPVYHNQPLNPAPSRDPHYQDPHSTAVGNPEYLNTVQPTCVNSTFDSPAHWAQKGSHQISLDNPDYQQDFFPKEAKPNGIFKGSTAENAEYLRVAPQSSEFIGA
UniProt P00533, whole entry T790M/L858R: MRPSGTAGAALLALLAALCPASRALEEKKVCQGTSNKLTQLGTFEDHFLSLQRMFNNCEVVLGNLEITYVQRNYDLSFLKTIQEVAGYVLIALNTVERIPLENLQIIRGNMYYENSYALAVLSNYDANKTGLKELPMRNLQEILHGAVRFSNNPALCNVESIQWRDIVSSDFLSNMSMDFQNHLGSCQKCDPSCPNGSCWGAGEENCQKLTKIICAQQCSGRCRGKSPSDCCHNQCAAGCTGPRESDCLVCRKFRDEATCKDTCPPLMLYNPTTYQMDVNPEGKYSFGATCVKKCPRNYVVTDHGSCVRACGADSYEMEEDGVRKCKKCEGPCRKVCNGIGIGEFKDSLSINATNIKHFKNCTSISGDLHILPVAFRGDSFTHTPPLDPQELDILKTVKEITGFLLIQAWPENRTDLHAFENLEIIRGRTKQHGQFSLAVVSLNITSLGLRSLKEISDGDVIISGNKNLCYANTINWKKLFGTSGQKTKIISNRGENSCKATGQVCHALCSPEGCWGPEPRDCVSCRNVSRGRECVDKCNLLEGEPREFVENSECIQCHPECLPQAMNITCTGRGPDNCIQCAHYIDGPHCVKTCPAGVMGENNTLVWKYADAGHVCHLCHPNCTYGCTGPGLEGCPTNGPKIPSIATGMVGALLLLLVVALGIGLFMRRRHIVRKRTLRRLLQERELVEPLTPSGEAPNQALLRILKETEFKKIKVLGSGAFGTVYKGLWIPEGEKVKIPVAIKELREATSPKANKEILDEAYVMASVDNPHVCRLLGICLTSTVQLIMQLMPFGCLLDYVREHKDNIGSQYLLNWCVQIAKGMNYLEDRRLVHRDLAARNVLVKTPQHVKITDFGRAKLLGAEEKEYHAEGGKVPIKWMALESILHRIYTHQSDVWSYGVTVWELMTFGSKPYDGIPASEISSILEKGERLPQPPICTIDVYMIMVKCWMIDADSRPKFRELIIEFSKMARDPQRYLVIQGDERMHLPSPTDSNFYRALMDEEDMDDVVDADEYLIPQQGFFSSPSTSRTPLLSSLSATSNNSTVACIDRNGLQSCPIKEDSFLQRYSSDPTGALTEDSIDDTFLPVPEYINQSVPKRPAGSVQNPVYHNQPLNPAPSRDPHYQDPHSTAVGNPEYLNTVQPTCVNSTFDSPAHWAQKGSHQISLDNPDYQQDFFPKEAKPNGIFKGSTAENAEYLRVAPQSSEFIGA
UniProt P00533, whole entry T790M/C797S/L858R: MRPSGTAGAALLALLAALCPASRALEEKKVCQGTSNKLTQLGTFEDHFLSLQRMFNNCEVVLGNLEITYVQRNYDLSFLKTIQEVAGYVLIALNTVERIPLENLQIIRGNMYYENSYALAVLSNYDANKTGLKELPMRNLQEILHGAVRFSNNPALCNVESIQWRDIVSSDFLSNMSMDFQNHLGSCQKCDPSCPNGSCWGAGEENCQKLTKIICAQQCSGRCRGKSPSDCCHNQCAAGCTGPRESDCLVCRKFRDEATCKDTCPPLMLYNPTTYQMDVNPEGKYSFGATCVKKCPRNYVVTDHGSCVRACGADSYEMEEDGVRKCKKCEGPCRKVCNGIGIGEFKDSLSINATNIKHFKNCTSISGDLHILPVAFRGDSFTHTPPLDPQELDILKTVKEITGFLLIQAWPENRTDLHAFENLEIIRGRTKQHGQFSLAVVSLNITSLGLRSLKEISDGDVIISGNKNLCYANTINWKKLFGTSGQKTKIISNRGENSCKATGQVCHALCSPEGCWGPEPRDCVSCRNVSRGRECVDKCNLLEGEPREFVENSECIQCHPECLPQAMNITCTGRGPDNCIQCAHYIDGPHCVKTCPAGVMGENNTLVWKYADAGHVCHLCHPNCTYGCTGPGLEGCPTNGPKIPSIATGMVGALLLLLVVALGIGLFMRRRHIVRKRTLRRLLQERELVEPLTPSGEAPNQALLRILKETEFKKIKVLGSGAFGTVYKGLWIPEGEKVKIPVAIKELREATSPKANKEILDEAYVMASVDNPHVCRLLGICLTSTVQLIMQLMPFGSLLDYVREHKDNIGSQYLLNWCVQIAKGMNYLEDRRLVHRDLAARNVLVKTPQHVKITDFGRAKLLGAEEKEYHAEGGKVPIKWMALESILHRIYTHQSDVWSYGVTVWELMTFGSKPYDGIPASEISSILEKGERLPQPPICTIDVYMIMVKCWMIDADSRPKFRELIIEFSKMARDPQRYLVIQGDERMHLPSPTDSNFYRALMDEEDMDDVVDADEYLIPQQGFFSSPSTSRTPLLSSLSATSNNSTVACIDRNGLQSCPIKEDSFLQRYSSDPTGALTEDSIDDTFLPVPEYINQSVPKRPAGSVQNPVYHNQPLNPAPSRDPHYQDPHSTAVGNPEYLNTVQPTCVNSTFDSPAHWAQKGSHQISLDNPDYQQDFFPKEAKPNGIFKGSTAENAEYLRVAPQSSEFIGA
UniProt P00533, with tags, fused parts or gaps DEL746-750: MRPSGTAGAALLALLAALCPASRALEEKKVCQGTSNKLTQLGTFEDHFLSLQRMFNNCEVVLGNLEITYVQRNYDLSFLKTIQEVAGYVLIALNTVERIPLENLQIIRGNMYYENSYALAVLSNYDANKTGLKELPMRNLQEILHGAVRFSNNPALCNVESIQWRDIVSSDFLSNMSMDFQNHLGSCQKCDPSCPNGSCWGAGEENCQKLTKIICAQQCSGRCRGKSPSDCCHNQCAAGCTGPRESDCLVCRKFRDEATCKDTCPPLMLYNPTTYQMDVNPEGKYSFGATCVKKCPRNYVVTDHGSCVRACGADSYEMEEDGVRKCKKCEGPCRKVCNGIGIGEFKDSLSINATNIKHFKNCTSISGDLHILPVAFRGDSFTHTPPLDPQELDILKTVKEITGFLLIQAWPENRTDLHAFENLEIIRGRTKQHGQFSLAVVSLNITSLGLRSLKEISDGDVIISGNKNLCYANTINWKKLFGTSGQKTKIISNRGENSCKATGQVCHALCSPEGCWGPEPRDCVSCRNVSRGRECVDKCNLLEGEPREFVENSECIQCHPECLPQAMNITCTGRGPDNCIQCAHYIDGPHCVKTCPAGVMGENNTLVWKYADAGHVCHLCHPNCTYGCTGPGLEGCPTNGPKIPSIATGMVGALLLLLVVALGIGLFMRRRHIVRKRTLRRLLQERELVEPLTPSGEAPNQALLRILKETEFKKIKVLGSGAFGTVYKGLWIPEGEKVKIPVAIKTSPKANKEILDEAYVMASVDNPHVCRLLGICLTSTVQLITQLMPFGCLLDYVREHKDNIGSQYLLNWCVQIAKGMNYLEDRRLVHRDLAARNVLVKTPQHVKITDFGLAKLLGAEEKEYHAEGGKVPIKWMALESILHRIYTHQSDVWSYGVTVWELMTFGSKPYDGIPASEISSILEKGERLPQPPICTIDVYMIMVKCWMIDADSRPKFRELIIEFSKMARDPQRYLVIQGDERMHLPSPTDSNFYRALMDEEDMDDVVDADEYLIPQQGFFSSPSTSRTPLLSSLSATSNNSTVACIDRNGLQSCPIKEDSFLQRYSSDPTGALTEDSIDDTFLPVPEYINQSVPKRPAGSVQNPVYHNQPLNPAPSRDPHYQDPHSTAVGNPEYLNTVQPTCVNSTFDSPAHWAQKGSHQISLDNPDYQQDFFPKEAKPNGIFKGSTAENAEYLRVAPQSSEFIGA
UniProt P00533, with tags, fused parts or gaps DEL746-750/T790M: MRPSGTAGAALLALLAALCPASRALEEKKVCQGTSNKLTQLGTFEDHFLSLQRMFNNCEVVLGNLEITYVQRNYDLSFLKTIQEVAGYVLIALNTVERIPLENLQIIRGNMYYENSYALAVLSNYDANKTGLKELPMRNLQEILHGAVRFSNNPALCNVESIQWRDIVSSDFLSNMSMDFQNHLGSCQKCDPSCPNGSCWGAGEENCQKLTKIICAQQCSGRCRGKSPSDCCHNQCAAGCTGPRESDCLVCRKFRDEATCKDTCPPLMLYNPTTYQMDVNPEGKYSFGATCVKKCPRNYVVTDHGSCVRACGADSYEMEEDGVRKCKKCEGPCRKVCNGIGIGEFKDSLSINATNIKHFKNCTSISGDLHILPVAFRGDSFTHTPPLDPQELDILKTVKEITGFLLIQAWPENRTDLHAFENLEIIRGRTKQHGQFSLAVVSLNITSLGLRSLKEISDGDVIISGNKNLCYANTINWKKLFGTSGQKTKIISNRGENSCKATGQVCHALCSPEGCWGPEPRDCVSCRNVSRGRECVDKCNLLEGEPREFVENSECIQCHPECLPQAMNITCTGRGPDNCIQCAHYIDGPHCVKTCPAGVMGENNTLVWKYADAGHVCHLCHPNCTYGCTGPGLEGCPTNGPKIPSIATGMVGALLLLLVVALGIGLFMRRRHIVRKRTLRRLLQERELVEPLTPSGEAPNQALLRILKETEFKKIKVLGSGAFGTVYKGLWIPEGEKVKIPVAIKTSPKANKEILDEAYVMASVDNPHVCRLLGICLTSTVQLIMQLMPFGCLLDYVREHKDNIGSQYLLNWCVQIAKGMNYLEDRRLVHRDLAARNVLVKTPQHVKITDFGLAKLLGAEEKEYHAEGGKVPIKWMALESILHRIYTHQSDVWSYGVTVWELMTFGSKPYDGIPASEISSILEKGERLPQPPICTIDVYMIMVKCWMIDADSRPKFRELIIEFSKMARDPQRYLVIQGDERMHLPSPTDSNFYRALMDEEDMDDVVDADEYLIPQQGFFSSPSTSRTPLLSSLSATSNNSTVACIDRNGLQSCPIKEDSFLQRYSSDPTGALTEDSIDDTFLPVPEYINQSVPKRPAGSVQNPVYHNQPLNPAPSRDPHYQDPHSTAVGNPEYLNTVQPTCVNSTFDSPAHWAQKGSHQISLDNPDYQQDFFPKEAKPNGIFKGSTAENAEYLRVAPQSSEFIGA

Assay [2] concerns the target BaF3 cell lines stably transfected with kinase EGFR L858R/T790M/C797S (Homo sapiens, UniProt P00533, T790M/C797S/L858R, cells depend on it). The assay is described as follows: Growth inhibition of BaF3 cell line stably transfected with kinase EGFR L858R/T790M/C797S (MTS). Particulars: read-out: growth inhibitory activity IC50, L858R/T790M/C797S, 48 h. The method, then: as §1, §2, §3, §4, §5, §6

The target in assay [3] is BaF3 cell lines stably transfected with kinase EGFR Del (Homo sapiens, UniProt P00533, cells depend on it, form not given). The assay can be described thus: Growth inhibition of BaF3 cell line stably transfected with kinase EGFR Del (MTS). The note with it: read-out: growth inhibitory activity IC50, Del, 48 h. The method, then:
as §1, §2, §3, §4, §5, §6

Assay [4] concerns the target BaF3 cell lines stably transfected with kinase EGFR Del/T790M/C797S (Homo sapiens, UniProt P00533, T790M/C797S, cells depend on it, form not given). The assay can be described thus: Growth inhibition of BaF3 cell line stably transfected with kinase EGFR Del/T790M/C797S (MTS). The note with it: read-out: growth inhibitory activity IC50, Del/T790M/C797S, 48 h. The method, then: as §1, §2, §3, §4, §5, §6

Assay [5] addresses BaF3 cell lines stably transfected with kinase EGFR L858R (Homo sapiens, UniProt P00533, L858R, cells depend on it). The assay is described as follows: Growth inhibition of BaF3 cell line stably transfected with kinase EGFR L858R (MTS). The note with it: read-out: growth inhibitory activity IC50, L858R, 48 h. The method, then:
as §1, §2, §3, §4, §5, §6

Assay [6] has as its target BaF3 cell lines stably transfected with kinase EGFR Del/T790M (Homo sapiens, UniProt P00533, T790M, cells depend on it, form not given). The assay can be described thus: Growth inhibition of BaF3 cell line stably transfected with kinase EGFR Del/T790M (MTS). The note with it: read-out: growth inhibitory activity IC50, Del/T790M, 48 h. The method, then: as §1, §2, §3, §4, §5, §6

For six compounds, GI50 results are on record in US12679822B2, “Alkenyl pyrimidine compound, preparation method therefor, and application thereof” (Hongyun Biotech Co., Ltd., priority 2020, dated 2026).

Consider `C=Cc1cnc(Nc2cc(CC)c(N3CCC(N4CCN(C)CC4)CC3)cc2OC)nc1Nc1ccc2nccnc2c1N(C)S(=O)(=O)C(C)C`, for which the GI50 in assay [1], in assay [2], in assay [3], in assay [4], in assay [5] and in assay [6] was 50 to 500 nM each time.

As to `C=Cc1cnc(Nc2cn[nH]c2)nc1Nc1ccc2nccnc2c1N(C)S(C)(=O)=O`, the GI50 in assay [1], in assay [2], in assay [3], in assay [4], in assay [5] and in assay [6] was 50 to 500 nM throughout.

With `C=Cc1cnc(Nc2ccc(N3CCC(N4CCN(C)CC4)CC3)cc2OC)nc1Nc1ccc2nccnc2c1NS(C)(=O)=O`, the GI50 in assay [1] lay in the range of 50 to 500 nM; in assay [2], 50 to 500 nM; in assay [3], 50 to 500 nM; in assay [4], 500 to 2500 nM; in assay [5], 50 to 500 nM; in assay [6], 50 to 500 nM.

Turning to `C=C(C)c1cnc(Nc2cc(CC)c(N3CCC(N4CCN(C)CC4)CC3)nc2OC)nc1Nc1ccc2nccnc2c1P(C)(C)=O`, the GI50 in assay [1], in assay [2], in assay [3], in assay [4], in assay [5] and in assay [6] was < 50 nM throughout.

Turning to `C=C(C)c1cnc(Nc2cc(CC)c(N3CCC(N4CCN(C)CC4)CC3)nc2OC)nc1Nc1ccc2nccnc2c1N(C)S(C)(=O)=O`, the GI50 was < 50 nM in assay [1]; 50 to 500 nM in assay [2]; < 50 nM in assay [3]; 50 to 500 nM in assay [4]; < 50 nM in assay [5]; < 50 nM in assay [6].

For the compound `C=Cc1cnc(Nc2cc(C3CCN(C)CC3)ccc2OC)nc1Nc1ccc2nccnc2c1P(C)(C)=O`, the GI50 in assay [1] is 50 to 500 nM; in assay [2], < 50 nM; in assay [3] it was < 50 nM; in assay [4], 50 to 500 nM; in assay [5] it was < 50 nM; in assay [6] it was < 50 nM.
